Measured values: patent US20060003399A1, “High throughput actin polymerization assay” (Cytokinetics, Inc., priority 2004, published 2006)

How the values were obtained:
[1] = molecular target: Full length human N-WASP, TAP-tagged at the C-terminus (Myc-N-WASP-TAP) (human); assay: cell-based or functional assay
[2] = molecular target: Full length human WASP, TAP-tagged at the C-terminus (Myc-WASP-TAP) (human); assay: cell-based or functional assay

Substance | Barbed ends [1] | Barbed ends % of max. [1] | EC50 [1] | acceleration of actin polymerization [1] | Barbed ends [2] | Barbed ends % of max. [2] | EC50 [2] | acceleration of actin polymerization [2]
GST-tev-Nck1 | 3.4 nM | 75% | 11 nM | 13 fold | 4 nM | 94% | 10 nM | 13 fold
GST-tev-Rac1 (enzyme) | – | – | 31 nM | – | – | – | 80 nM | –
